From patent publication US20260042731A1, “(2,4-DICHLOROPHENOXY)ACETIC ACID ANALOGS” (CORTEVA AGRISCIENCE LLC, priority 2022, published 2026)

Test system: glyphosate resistant Conyza canadensis (L.) (ERICA), horseweed
Test: Postemergence herbicide evaluation, growth of Conyza canadensis (ERICA)
Format: in vivo
Details: for Ave. ERICA: percent reduction in plant size vs untreated control

SMILES	Ave. ERICA (280 g ae/ha, 14 DAA) [%]	Ave. ERICA (280 g ae/ha, 21 DAA) [%]	Ave. ERICA (560 g ae/ha, 14 DAA) [%]	Ave. ERICA (560 g ae/ha, 21 DAA) [%]	further results
O=C(COc1ccc(Cl)cc1Cl)OCCOC(=O)COc1ccc(Cl)cc1Cl [Compound B9]	100	96.5	93	99.5	–
O=C(COc1ccc(Cl)cc1Cl)OCc1ccc(COC(=O)COc2ccc(Cl)cc2Cl)cc1 [Compound B1, 1,4-Phenylenebis(methylene) bis(2-(2,4-dichlorophenoxy)acetate)]	–	–	–	–	Ave. ERICA, percent reduction in plant size relative to the untreated control (280 g ae/ha, 14 DAA): 30%; Ave. ERICA, percent reduction in plant size relative to the untreated control (280 g ae/ha, 21 DAA): 8%; Ave. ERICA, percent reduction in plant size relative to the untreated control (560 g ae/ha, 7 DAA): 28%
O=C(COc1ccc(Cl)cc1Cl)OCCOCCOCCOCCOC(=O)COc1ccc(Cl)cc1Cl [Compound B14]	100	–	100	–	Ave. ERICA (280 g ae/ha, 7 DAA): 85%
O=C(COc1ccc(Cl)cc1Cl)OCCCCCCOC(=O)COc1ccc(Cl)cc1Cl [Compound B12]	–	96	–	97	–
O=C(COc1ccc(Cl)cc1Cl)OCCOCCOCCOC(=O)COc1ccc(Cl)cc1Cl [Compound B13]	91.5	–	–	–	Ave. ERICA (280 g ae/ha, 7 DAA): 85%
O=C(COc1ccc(Cl)cc1Cl)OCCCCCOC(=O)COc1ccc(Cl)cc1Cl [Compound B8]	–	98.5	–	100	–
O=C(COc1ccc(Cl)cc1Cl)OCCCOC(=O)COc1ccc(Cl)cc1Cl [Compound B10]	–	90	79.5	97.5	–
